Assays:
[1] = Thermogravimetric analysis (TGA), evaporation into flowing nitrogen; settings: 10 to 20 milligrams, flowing nitrogen gas
[2] = Solubility of metal amidinate precursor in a solvent (terpene or dodecane)
Procedure: [drawing 8] was dissolved in alloocimene.
Examples 1 and 2 were repeated except that dodecane was used as a solvent in place of alloocimene or farnesenes.
[drawing 9] is dissolved in mixed isomers of farnesene.
[drawing 10] is dissolved in mixed isomers of farnesenes.
[drawing 11] is dissolved in mixed isomers of farnesenes.
[drawing 12] is dissolved in alloocimene.
[drawing 13] is dissolved in mixed isomers of farnesene.

Q: For “bis(N,N′-di-tert-butylacetamidinato)nickel(II)”, which “T1/2, temperature by which one half of the mass is lost” value [1] is on record?
A: 197 °C

Q: And the solubility ([2]; in alloocimene)?
A: over 40 weight percent

Q: And the “volume concentration of the solution” value ([2]; in alloocimene, from solution density 0.97 g cm^-3)?
A: over 1.0 molar

Q: And the solubility ([2]; in dodecane (saturated hydrocarbon, comparative))?
A: around 0.25 molar

Q: What about the solubility ([2]; in mixed isomers of farnesene) of the same substance?
A: over 37 weight percent

Q: What about the “volume concentration of the solution” value ([2]; in mixed isomers of farnesene, from solution density 0.96 g cm^-3) of the same substance?
A: over 0.9 molar

— patent US9790378B2, “Vapor source using solutions of precursors in terpenes” (President and Fellows of Harvard College, priority 2010, dated 2017)
